In patent US12459997B2, “Compounds and methods targeting interleukin-19” (Eli Lilly and Company, priority 2018, dated 2025):

Columns and labels:
[1] = system: Ps0 patients; experiment: Ps0 study in JAK1 and JAK2 kinase inhibitor treatment groups: serum IL-19 and PASI; type: in vivo, human
[2] = system: patients with moderate-to-sever atopic dermatitis; experiment: AD study in JAK1 and JAK2 kinase inhibitor treatment groups: serum IL-19 and EASI; type: in vivo, human
[3] = 2 mg orally once daily, Week 0 (baseline)
[4] = 2 mg orally once daily, week 12
[5] = 4 mg orally once daily, Week 0 (baseline)
[6] = 4 mg orally once daily, week 12
[7] = 8 mg orally once daily, week 12
[8] = 10 mg orally once daily, week 12
[9] = 2 mg orally once daily, week 16
[10] = 4 mg orally once daily, week 16

Compound: CCS(=O)(=O)N1CC(CC#N)(n2cc(-c3ncnc4[nH]ccc34)cn2)C1 [baricitinib]
- IL-19 serum levels (geometric mean) [1, 3]: 182.3 pg/mL
- IL-19 serum levels (geometric mean) ([1]; 2 mg orally once daily, Week 2): 98.5 pg/mL
- % of patients with serum IL-19 concentration ≤ 21 pg/mL [1, 4]: 13.8% (4/29)
- % patients with serum IL-19 concentration ≤ 21 pg/mL achieving at least PASI 75 [1, 4]: 50% (2/4)
- % patients with serum IL-19 concentration ≤ 21 pg/mL not achieving at least PASI 75 [1, 4]: 50% (2/4)
- IL-19 serum levels (geometric mean) [1, 4]: 64.8 pg/mL
- IL-19 serum levels (geometric mean) [1, 5]: 134.9 pg/mL
- IL-19 serum levels (geometric mean) ([1]; 4 mg orally once daily, Week 2): 70.2 pg/mL
- % of patients with serum IL-19 concentration ≤ 21 pg/mL [1, 6]: 31.8% (21/66)
- % patients with serum IL-19 concentration ≤ 21 pg/mL achieving at least PASI 75 [1, 6]: 47.6% (10/21)
- % patients with serum IL-19 concentration ≤ 21 pg/mL not achieving at least PASI 75 [1, 6]: 52.4% (11/21)
- IL-19 serum levels (geometric mean) [1, 6]: 60.1 pg/mL
- IL-19 serum levels (geometric mean) ([1]; 8 mg orally once daily, Week 0 (baseline)): 177.3 pg/mL
- IL-19 serum levels (geometric mean) ([1]; 8 mg orally once daily, Week 2): 67.0 pg/mL
- % of patients with serum IL-19 concentration ≤ 21 pg/mL [1, 7]: 38.9% (21/54)
- % patients with serum IL-19 concentration ≤ 21 pg/mL achieving at least PASI 75 [1, 7]: 85.7% (18/21)
- % patients with serum IL-19 concentration ≤ 21 pg/mL not achieving at least PASI 75 [1, 7]: 14.3% (3/21)
- IL-19 serum levels (geometric mean) [1, 7]: 47.5 pg/mL
- IL-19 serum levels (geometric mean) ([1]; 10 mg orally once daily, Week 0 (baseline)): 110.1 pg/mL
- IL-19 serum levels (geometric mean) ([1]; 10 mg orally once daily, Week 2): 39.7 pg/mL
- % of patients with serum IL-19 concentration ≤ 21 pg/mL [1, 8]: 46.6% (27/58)
- % patients with serum IL-19 concentration ≤ 21 pg/mL achieving at least PASI 75 [1, 8]: 77.8% (21/27)
- % patients with serum IL-19 concentration ≤ 21 pg/mL not achieving at least PASI 75 [1, 8]: 22.2% (6/27)
- IL-19 serum levels (geometric mean) [1, 8]: 25.7 pg/mL
- IL-19 (geometric mean) serum levels [2, 3]: 27.8 pg/mL
- IL-19 (geometric mean) serum levels ([2]; 2 mg orally once daily, Week 4): 18.8 pg/mL
- % of patients with serum IL-19 concentration ≤ 21 pg/mL [2, 9]: 51.9% (14/27)
- % patients with serum IL-19 concentration ≤ 21 pg/mL achieving at least EASI 75 [2, 9]: 64.3% (9/14)
- % patients with serum IL-19 concentration ≤ 21 pg/mL not achieving at least EASI 75 [2, 9]: 35.7% (5/14)
- IL-19 (geometric mean) serum levels [2, 9]: 25.1 pg/mL
- IL-19 (geometric mean) serum levels [2, 5]: 30.3 pg/mL
- IL-19 (geometric mean) serum levels ([2]; 4 mg orally once daily, Week 4): 18.0 pg/mL
- % of patients with serum IL-19 concentration ≤ 21 pg/mL [2, 10]: 63.0% (17/27)
- % patients with serum IL-19 concentration ≤ 21 pg/mL achieving at least EASI 75 [2, 10]: 58.8% (10/17)
- % patients with serum IL-19 concentration ≤ 21 pg/mL not achieving at least EASI 75 [2, 10]: 41.2% (7/17)
- IL-19 (geometric mean) serum levels [2, 10]: 21.1 pg/mL
